Data: the NIST ThermoML archive (doi:10.1016/j.tca.2005.01.064)
± gives the expanded uncertainty stated by the source.

Tests used:
[1] = excess molar enthalpy (molar enthalpy of mixing); xn = mol fraction of the nth substance listed; conditions: 308.15 K, 101.33 kPa, Liquid, Flow calorimetry
[2] = 308.15 K; 101.33 kPa; Liquid; Vibrating tube method

Row | Compound | excess molar enthalpy ([1]; x1 = 0.0243) | excess molar enthalpy ([1]; x1 = 0.0475) | excess molar enthalpy ([1]; x1 = 0.0697) | excess molar enthalpy ([1]; x1 = 0.0908) | excess molar enthalpy ([1]; x1 = 0.1303) | excess molar enthalpy ([1]; x1 = 0.1664) | excess molar enthalpy ([1]; x1 = 0.2305) | excess molar enthalpy ([1]; x1 = 0.2853) | excess molar enthalpy ([1]; x1 = 0.3746) | excess molar enthalpy ([1]; x1 = 0.4734) | excess molar enthalpy ([1]; x1 = 0.5451) | excess molar enthalpy ([1]; x1 = 0.6425) | excess molar enthalpy ([1]; x1 = 0.7056) | excess molar enthalpy ([1]; x1 = 0.7824) | excess molar enthalpy ([1]; x1 = 0.8276) | excess molar enthalpy ([1]; x1 = 0.8779) | excess molar enthalpy ([1]; x1 = 0.935) | mass density [2]
1 | OCCOCCOCCOCCO [tetraethylene glycol] + CCO | 0.0303 ± 0.00055 kcal/mol | 0.0549 ± 0.000789 kcal/mol | 0.0755 ± 0.001 kcal/mol | 0.091 ± 0.00115 kcal/mol | 0.114 ± 0.00139 kcal/mol | 0.13 ± 0.00153 kcal/mol | 0.152 ± 0.00177 kcal/mol | 0.162 ± 0.00186 kcal/mol | 0.176 ± 0.00201 kcal/mol | 0.182 ± 0.00206 kcal/mol | 0.179 ± 0.00203 kcal/mol | 0.165 ± 0.00189 kcal/mol | 0.149 ± 0.00172 kcal/mol | 0.12 ± 0.00143 kcal/mol | 0.0994 ± 0.00124 kcal/mol | 0.07 ± 0.000932 kcal/mol | 0.0366 ± 0.000598 kcal/mol | 
2 | OCCOCCOCCOCCO [tetraethylene glycol] |  |  |  |  |  |  |  |  |  |  |  |  |  |  |  |  |  | 1112.28 ± 0.17 kg/m3
